Test system: NFκB reporter cells or IMG microglial cells
Test: Cytotoxicity assay (CellTiter-Glo Luminescent Cell Viability Assay)
Settings: up to 12.5 μg/ml, 24 hours, NFκB reporter cells and IMG microglial cells, FIG. 11

Substance	cytotoxic effects
Ac- RRR[Dap]FT[Nal]LD (cyclic) [Peptide A3-5]	no cytotoxic effects
Ac- RR[Dap]FT[Nal]LD (cyclic) [Peptide A3-6]	no cytotoxic effects
Ac- RR[Dap]FT[Nal]L[dS]D (cyclic) [Peptide A3-9]	no cytotoxic effects

From US20250353898A1, “SERPIN PEPTIDE DERIVATIVES AND METHODS OF USING THE SAME” (priority 2022, published 2025)
